The values below come from patent publication US9862707B2, “TrkA kinase inhibitors, compositions and methods thereof” (Merck Sharp & Dohme Corp., priority 2014, dated 2018).

Amino acid sequences for entries named in this document (tags omitted). Residues count along the entry.
UniProt P04629, 33-796 limits assumed: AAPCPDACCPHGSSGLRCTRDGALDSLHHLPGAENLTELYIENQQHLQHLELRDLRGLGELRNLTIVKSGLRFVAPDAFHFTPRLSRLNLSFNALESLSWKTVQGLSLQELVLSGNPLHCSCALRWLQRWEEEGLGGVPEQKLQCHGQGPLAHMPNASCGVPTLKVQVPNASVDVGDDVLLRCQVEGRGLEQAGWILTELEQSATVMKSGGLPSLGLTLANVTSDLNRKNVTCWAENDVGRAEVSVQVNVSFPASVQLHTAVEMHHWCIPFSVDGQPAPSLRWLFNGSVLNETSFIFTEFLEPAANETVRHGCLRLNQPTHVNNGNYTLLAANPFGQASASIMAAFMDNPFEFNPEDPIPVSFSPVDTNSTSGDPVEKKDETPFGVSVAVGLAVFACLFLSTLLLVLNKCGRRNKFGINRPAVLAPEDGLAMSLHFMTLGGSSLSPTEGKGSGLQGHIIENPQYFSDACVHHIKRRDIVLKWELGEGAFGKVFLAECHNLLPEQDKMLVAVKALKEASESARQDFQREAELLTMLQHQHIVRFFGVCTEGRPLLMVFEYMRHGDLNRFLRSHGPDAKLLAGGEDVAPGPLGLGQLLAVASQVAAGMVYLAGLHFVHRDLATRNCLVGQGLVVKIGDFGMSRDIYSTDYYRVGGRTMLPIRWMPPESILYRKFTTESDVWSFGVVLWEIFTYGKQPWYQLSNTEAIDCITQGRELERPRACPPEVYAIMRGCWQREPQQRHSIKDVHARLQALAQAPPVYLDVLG

The target of this assay is human TrkA receptor (Homo sapiens (Human), UniProt P04629). Description: TrkA functional activity, DiscoverX PathHunter assay. It counts as cell-based. The settings on record: U2OS cells expressing human TrkA-PK, Shc1-EA and p75NTR; compound 1 h, then NGF at ~80% of maximal response for 3 h; luminescence.

Broadly, the IC50 is the midpoint of a concentration-inhibition curve. Read a high IC50 as a need for much substance. `CC(C)(O)c1ccc2nn(-c3ccccc3)c(NC(=O)c3cc(-c4ncccn4)c(C(F)(F)F)cc3F)c2c1` [Compound 44, 2-Fluoro-N-(5-(2-hydroxypropan-2-yl)-2-phenyl-2H-indazol-3-yl)-5-(pyrimidin-2-yl)-4-(trifluoromethyl)benzamide] returned an IC50 of 4.6 nM.
